In patent US7622438B1, “Protein formulation for promoting hard tissue formation” (Acologix, Inc., priority 2005, dated 2009):

Experiments:
[1] = test system: dorsal muscle of mice (ICR); assay: Ectopic bone formation from polymer pellets implanted in mouse dorsal muscle; format: in vivo
From the text: Materials and Methods: Polymer pellets containing both BMP-2 and the peptide of SEQ ID No. 8 in the following amounts (see table below) were implanted in the dorsal subfascia of 4 week old ICR mice. The mice were sacrificed 3 weeks later and the newly formed bones were isolated for evaluation using soft X-ray radiograph and bone mineral density determination.

[2] = test system: hard tissue forming cells; assay: General activity statements on hard tissue forming cells; settings: suboptimal concentration of rhBMP-2 alone
Smad1/5/8 = assay: Phosphorylation of Smad1/5/8 by Western blotting in primary osteoblasts; format: cell-based, mouse; settings: 25 ng/mL BMP-2 alone
Experimental: Materials and Methods: Primary osteoblasts collected from fetal mouse calvaria were cultured with 0 or 25 ng/mL of BMP-2 with the addition of 0 or 2 uM of the peptide of SEQ ID No. 8 to the culture system. Phosphorylation of Smad1/5/8 was evaluated by Western blotting at 0, 0.5, 1, 2, 12, 24, 48 and 72 hours.

B1: rhBMP-2: commercial available recombinant human bone morphogenic protein-2 (protein, UniProt P12643 283-396, looked up)
Bone morphogenetic protein 2: QAKHKQRKRLKSSCKRHPLYVDFSDVGWNDWIVAPPGYHAFYCHGECPFPLADHLNSTNHAIVQTLVNSVNSKIPKACCVPTELSAISMLYLDENEKVVLKNYQDMVVEGCGCR
[1]; 3 μg rhBMP-2 (suboptimal dose)
  bone formation compared to a 5 μg dose: substantially less bone formation
[1]; 5 μg or higher rhBMP-2 in PLA/PEG/DX polymer, about 20 days
  new bone formation: new bone tissue was locally formed
[2]
  COX-2 or PGE2: marginally upregulated
Smad1/5/8
  time over which phosphorylation of Smad1/5/8 was detectable: 0.5 to 12 h
